According to article PMC2001498, “Effects of transplantation and resection of a radiation-induced rat insulinoma on glucose homeostasis and the endocrine pancreas” (British Journal of Cancer, 1986):

Conditions: plasma insulin (endogenous, tumour-derived) after resection of s.c. subscapular insulinoma 21 days after transplantation; sodium pentobarbitone anaesthesia 50 mg kg-1 i.p.; dextran-charcoal radioimmunoassay; groups of 12 rats

insulin
estimated half-life of insulin: 3.5 min
